This is an account of results in patent US20260174750A1 (Merck Sharp & Dohme LLC, priority 2022, published 2026).

Amino acid sequences for entries named in this document (tags omitted).
UniProt Q96PD7, whole entry: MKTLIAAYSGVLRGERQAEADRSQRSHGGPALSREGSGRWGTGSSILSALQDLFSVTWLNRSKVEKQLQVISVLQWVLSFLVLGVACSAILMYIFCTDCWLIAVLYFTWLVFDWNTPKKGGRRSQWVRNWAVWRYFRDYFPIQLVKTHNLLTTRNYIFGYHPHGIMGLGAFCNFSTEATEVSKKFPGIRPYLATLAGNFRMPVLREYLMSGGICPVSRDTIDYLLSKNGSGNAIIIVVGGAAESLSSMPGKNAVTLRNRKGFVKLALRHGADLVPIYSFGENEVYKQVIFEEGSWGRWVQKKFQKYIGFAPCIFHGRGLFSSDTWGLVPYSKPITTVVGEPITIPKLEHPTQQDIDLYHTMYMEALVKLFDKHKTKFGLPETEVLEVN

What is called IC50 is the point on the concentration scale where inhibition reaches its midpoint. The low end stands for greater potency in that assay, the high end for weaker potency in that assay.

The assay has as its target human DGAT2 (Homo sapiens, UniProt Q96PD7).

`Cc1c(Oc2ncc(Cl)cc2OCC(C)(F)F)ccc2nc(C(=O)NC3(CC(F)(F)F)CCS(=O)(=O)CC3)nn12` displayed an IC50 of 0.636 µM.
